This note sets out measurements from patent US20070207975A1, “Materials and methods for treating and preventing Her-2/neu overexpressing, FAS-elevated cancer cells” (EVANSTON NORTHWESTERN HEALTHCARE, priority 2006, published 2007).

The test system of the test is BT-474 cells. In words: TUNEL apoptosis assay, BT-474. It counts as cell-based, human. As to the method: FIG. 6. […] The immunofluorescence photomicrographs of cells undergoing apoptosis (green staining) and the corresponding DAPI-counterstained photomicrographs are shown. […] Equal amounts of total protein (50 μg per lane) were subjected to Western blot analyses with a specific antibody against the p85 fragment of PARP, and then re-probed with a β-actin antibody. […] Similar results were obtained in three independent experiments. […] For each pair of columns, the height of the columns on the left represents the sum of the effect of each agent alone and, therefore, the expected apoptotic cell death if their effect was additive when used in combination. […] A) Cell surface expression of Her-2/neu protein in BT-474 and SK-Br3 cells was determined by flow cytometry using a mouse anti-Her-2/neu antibody directed against the extracellular domain of the p185^Her-2/neu oncoprotein (clone Ab-5; Oncogene Research Products; San Diego, Calif.). […] The mean fluorescence signal associated with cells for labeled p185^Her-2/neu was quantified using the Geo Mean (GM) fluorescence parameter provided with the software. […] Immunoreactive bands were detected by enhanced chemiluminescence reagent (Pierce, Rockford, Ill.). […] Densitometric values of protein bands were quantified using Scion Imaging Software (Scion Corp., Frederick, Md.). […]

“trastuzumab: humanized monoclonal IgG1, binding with high affinity to the ectodomain of p185^Her-2/neu [reference compound]”: the “cells that underwent apoptosis (TUNEL)” value (GLA 10 μg/mL, trastuzumab 10 μg/mL, alone or together, 48 hours) was 13% (95% CI=11% to 15%). Also, where the note is “OA 5 μM, trastuzumab 10 μg/ml, alone or simultaneously, 72 hours”, the TUNEL-positive cells was 16%.
